Reference: patent US20210379151A1 (ACADEMIA SINICA, priority 2018, published 2021)

Experiments:
[1] = mouse, in vivo
[2] = mouse, in vivo; remark: listed apart in the source
[3] = pig, in vivo
[4] = system: neuroinflammation-related genes; test: Real time quantitative PCR of neuroinflammation markers; assay type: in vivo, mouse; details: for gene expression of Il6: 4 hours
Excerpt: GAPDH was used an internal control.
Argaw et al., J. Clin. Invest. 2012,122 (7), 2454-2468 (2012). […] Kaya et al., J. Cereb. Blood Flow Metab., 25 (9), 1111-1118 (2005). […] Skelly et al., PLoS One, 8 (7), 1-20 (2013); and Monnet-Tschudi et al., Curr. Protoc. Toxicol., No. SUPPL. 50, 1-20 (2011). […] Cryolesion and LPS were both used as positive controls.

S100β = details: in vivo

VEGF
blood pressure [1]: no notable change | blood chemistry for liver and kidney function [2]: no adverse changes | blood pressure compared to control [3]: no clear changes | clinical observation [3]: rapid, but temporary, flushing reaction in one pig | expression of neuroinflammation genes compared to controls ([4]; 45 minutes following VEGF administration): no elevation | gene expression of Il6 ([4]; single VEGF): not single VEGF | gene expression of Il6 ([4]; treatment groups utilising multi-VEGF): increased after 4 hours | expression of Tnfa, Ccl2 and Cxcl1 ([4]; 24 hours after the treatment): moderately increased | expression of Tnfa, Ccl2 and Cxcl1 ([4]; four hours after VEGF treatment): unchanged | expression of neuroinflammation-related genes ([4]; mouse brain, four or 24 hours): moderately increased | mouse plasma S100β (S100β): no significant change
